Data published in PubChem BioAssay AID488924 (Johns Hopkins Ion Channel Center, 2010).
The list shows a part of the results, in another mix than the full data. Some tests of the compounds listed are not included; inactive here does not mean inactive elsewhere. Active and inactive are the calls of the source.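 Rule for the calls: active = membrane potential signal moves up or down beyond 5 SD from buffer-only wells, on both duplicate plates; inactive = the rest.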

Assay: parental HEK293 membrane potential modulation, confirmation, counter-screen for TRPC6 modulator project, cell-based (AID 488924)
Settings: parental HEK293, membrane potential dye fluorescence; at 10 µM

| SMILES | membrane potential signal change |
| --- | --- |
| CN1[C@@H]2CC[C@H]1CC(OC(=O)C(O)(c1ccccc1)c1ccccc1)C2 (some centres not stated) | inactive |
| CCN(CC)CC(C)C(C)OC(=O)C(O)(c1ccccc1)c1ccccc1 (configuration not stated) | active: 142% |
